Experimental data reported in article PMC8999133, “Resemblance-Ranking Peptide Library to Screen for Binders to Antibodies on a Peptidomic Scale” (International Journal of Molecular Sciences, 2022).

Test system: rituximab (RTX)
Assay: First screen of the resemblance-ranking peptide library with RTX, fluorescent immunostaining
Format: binding
Experimental: This value correlates with a presumptive “active” level of up 20 µg/mL in anti-lymphoma treatment. We assumed that the strength of the interaction is correlated with the intensity of fluorescent signals from secondary antibodies.
Peptide microarrays: A peptide library of 160,000, peptides as well other peptide microarrays for the substitutions and the KD analysis, were fabricated via the ultra-high-density peptide microarray technology of AXXELERA (Karlsruhe, Germany). The AXXELERA technology allows for the 30 µm-sized square peptide spots with a pitch of 60 µm that corresponds to ca. 28,000 spots/cm^2.
Immunostaining: Peptide microarrays were incubated with the monoclonal anti-CD20 antibody rituximab (Sigma-Aldrich, Steinheim, Germany) with concentrations depending on the type of experiment, diluted in PBS-T (Phosphate Buffered Saline with Tween) overnight at 4 °C. A rituximab concentration of 30 µg/mL was used for the first screen of the entire resemblance-ranking peptide library. Then, the peptide chips were stained with the fluorescently labeled secondary anti-human-IgG antibodies (Jackson ImmunoResearch, Philadelphia, PA, USA). The signals from the spots were read out with the confocal scanner Innoscan 1100 AL. The scans were performed in the red channel (635 nm), with a resolution of 2 µm/pixel, a speed of 35 µm/s, and a PMT gain of 9.

EPANPSEKNS
number of peptides from the resemblance-ranking library that delivered stronger signals (RTX 30 µg/mL, library of 160,000 peptides): 126,756 | fluorescent signal when incubated with RTX (peptide chip, RTX 30 µg/mL in PBS-T overnight at 4 °C, fluorescent secondary anti-human-IgG, 635 nm): signal at the noise level
